The assay deals with human TREM2 (Homo sapiens, UniProt Q9NZC2). Put plainly: Cellular phosphorylation of Syk (AlphaLisa) in HEK293T-hTREM2 cells, TREM2 agonist potency. The conditions noted are these: read-out: hTREM2 EC50; HEK293 cells expressing human TREM2 and DAP12; pSyk AlphaLisa; Table D-2. On the procedure: In Vitro Measurement of Triggering Receptor Expressed on Myeloid Cells 2 Activity Using Cellular Phosphorylation of Spleen Tyrosine Kinase (“Syk”) Assays
Measurement of TREM2 agonist potency was done using a HEK cell line expressing human TREM2 and DAP12 (HEK293T-hTREM2 cells). Binding of small molecules to, and activation of, TREM2 increases the phosphorylation of Syk. The resultant levels of Syk phosphorylation are measured using a commercial AlphaLisa reagent kit. To perform the assay, HEK-hTREM2 cells were plated at 14,000 cells per well in a 384 well plate, in 25 μL of complete growth media and incubated at 37° C., 5% CO2 for 20-24 hours.
Prior to the assay, test compounds were diluted in the 384 well plates in assay buffer and allowed to equilibrate for 30 minutes. Growth media was removed from cell plates by inversion on blotting paper, and 25 μL of test articles in assay buffer was added to cells. Cells were incubated for 45 minutes at room temperature. […] After complete lysis, AlphaLisa reagents were added to the lysate, and fluourescence intensity was measured using a Perkin Elmer Envision plate reader. Intensities were used to generate a standard curve, and % activation was calculated. Curve fitting was performed using Prism v9 software, log(agonist) vs response—variable slope (four parameters), and EC50s were calculated from the curve fit. […]

Sequences of proteins named here, by UniProt entry; tags and fusion partners are left off. Residues count along the entry.
UniProt Q9NZC2, 19-230 limits assumed: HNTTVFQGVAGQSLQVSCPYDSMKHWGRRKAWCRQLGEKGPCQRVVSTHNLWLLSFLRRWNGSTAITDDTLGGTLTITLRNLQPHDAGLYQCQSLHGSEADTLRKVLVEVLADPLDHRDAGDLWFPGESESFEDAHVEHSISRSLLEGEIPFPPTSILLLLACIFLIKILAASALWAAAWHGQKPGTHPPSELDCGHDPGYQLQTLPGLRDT
UniProt O43914, 22-113 partner limits assumed: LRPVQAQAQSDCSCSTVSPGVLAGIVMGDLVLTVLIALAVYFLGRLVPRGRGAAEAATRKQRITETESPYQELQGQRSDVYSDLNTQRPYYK

As a reminder, the EC50 is the concentration needed to bring the measured effect to its halfway point. For the compound `Cc1cc2c(-c3ccc(Cl)cc3)nn(-c3ccnc(OC4CN(C(=O)OC(C)(C)C)C4)c3)c(=O)c2nc1C`, the EC50 was in the range of 500 to 3000 nM.

(Values after patent US20260152484A1, “HETEROCYCLIC COMPOUNDS AS TRIGGERING RECEPTOR EXPRESSED ON MYELOID CELLS 2 AGONISTS” (Vigil Neuroscience, Inc., priority 2021, published 2026).)
